This passage reports IC50 and Ki results from PMC5180416 (Journal of the American Chemical Society, 2012).

The target in assay [1] is MLL1 core complex (MLL1/WDR5/RbBP5/ASH2L) (Homo sapiens, UniProt P61964). The experiment in a line: In vitro H3K4 histone methyltransferase. The format is biochemical.
In the next assay the target is WDR5 (Homo sapiens, UniProt P61964). In words: Fluorescence-polarization. It is filed as binding.
The mark [2] stands for this setting: IC50 ± SD, binding affinity to WDR5, FP-based competitive binding.

Values joined by “and” are separate entries in the source; they are usually repeats but may differ in a detail not shown here. Identical values can stand only once. Like-named read-outs stand apart in the source and are kept apart here. Some results are limits rather than exact numbers.

Consider `CC(=O)NCC(=O)N[C@@H](CCCNC(=N)N)C(=O)N[C@@H](C)C(N)=O` [Compound 1a], for which the IC50 in assay [1] is over 400 µM; on WDR5 (setting [2]), > 3 µM and 77.4 µM. This compound also showed a Ki at WDR5 of 16.7 ± 2.8 µM.

At WDR5, `CC[C@H](NC(C)=O)C(=O)N[C@@H](CCCNC(=N)N)C(=O)N[C@@H](C)C(N)=O` [Compound 1b] showed a Ki of 0.06 ± 0.001 µM.

Compound `CC(=O)N[C@H](C(=O)N[C@@H](CCCNC(=N)N)C(=O)N[C@@H](C)C(N)=O)C(C)C` [Compound 1c] yielded an IC50 in assay [1] of 12.1 ± 0.6 µM. On WDR5, this compound registered an IC50 of 0.24 ± 0.03 µM and a Ki of 0.05 ± 0.005 µM.

At WDR5, `CC(=O)N[C@@H](CS)C(=O)N[C@@H](CCCNC(=N)N)C(=O)N[C@@H](C)C(N)=O` [Compound 1d] yielded an IC50 of 1.83 ± 0.3 µM. Moreover, at WDR5 (read-out: Ki ± SD, binding affinity to WDR5, FP-based competitive binding), the Ki was found to be 0.4 ± 0.6 µM.

In the case of `CC(=O)N[C@@H](CC(C)C)C(=O)N[C@@H](CCCNC(=N)N)C(=O)N[C@@H](C)C(N)=O` [Compound 1e], on WDR5, 10.8 ± 0.4 µM corresponded to half-maximal inhibition (IC50) and affinity was put at a Ki of 2.3 ± 0.3 µM.

In the case of `CC(=O)N[C@@H](Cc1c[nH]cn1)C(=O)N[C@@H](CCCNC(=N)N)C(=O)N[C@@H](C)C(N)=O` [Compound 1g], on WDR5, inhibition was half-maximal at 1.7 ± 0.3 µM (IC50) and the Ki came to 0.4 ± 0.03 µM.

With `CC(=O)N[C@@H](Cc1ccccc1)C(=O)N[C@@H](CCCNC(=N)N)C(=O)N[C@@H](C)C(N)=O` [Compound 1h], the IC50 in assay [1] is over 400 µM; on WDR5 (setting [2]), > 3 µM and 3.1 µM. The compound further registered a Ki at WDR5 of 0.7 ± 0.07 µM.

Turning to `CC(=O)N[C@@H](CO)C(=O)N[C@@H](CCCNC(=N)N)C(=O)N[C@@H](C)C(N)=O` [Compound 1i], on WDR5, the IC50 was 2.9 ± 0.61 µM and the Ki was 0.6 ± 0.1 µM.

On WDR5, `CC(=O)N[C@H](C(=O)N[C@@H](CCCNC(=N)N)C(=O)N[C@@H](C)C(N)=O)[C@@H](C)O` [Compound 1j] showed a Ki of 0.6 ± 0.09 µM. Moreover, the IC50 at WDR5 (setting [2]) was determined as 2.9 ± 0.4 µM.

As for `CC(=O)N[C@@H](C)C(=O)N[C@@H](CCCNC(N)=O)C(=O)N[C@@H](C)C(N)=O` [Compound 2d], the IC50 in assay [1] is over 400 µM; on WDR5 (setting [2]), over 300 µM. The same compound registered a Ki at WDR5 of over 65 µM.

On WDR5, `CC(=O)N[C@@H](C)C(=O)N[C@@H](CCCNC(=N)N)C(=O)NCC(N)=O` [Compound 3a] had an IC50 of 10.3 ± 1.2 µM and a Ki of 2.2 ± 0.3 µM.

Take `CC[C@H](NC(=O)[C@H](CCCNC(=N)N)NC(=O)[C@H](C)NC(C)=O)C(N)=O` [Compound 3b]: the IC50 in assay [1] was 1.8 ± 0.2 µM. On WDR5, this compound returned an IC50 of 0.03 ± 0.008 µM and a Ki of 0.006 ± 0.002 µM.

On WDR5, `CC(=O)N[C@@H](C)C(=O)N[C@@H](CCCNC(=N)N)C(=O)N[C@H](C(N)=O)C(C)C` [Compound 3c] registered an IC50 of 0.11 ± 0.02 µM and a Ki of 0.02 ± 0.003 µM.

Compound `CC(=O)N[C@@H](C)C(=O)N[C@@H](CCCNC(=N)N)C(=O)N[C@@H](CS)C(N)=O` [Compound 3d] showed a Ki at WDR5 of 0.02 ± 0.003 µM. Also, on WDR5 (setting [2]), the IC50 worked out at 0.08 ± 0.01 µM.

On WDR5, `CC(=O)N[C@@H](C)C(=O)N[C@@H](CCCNC(=N)N)C(=O)N[C@@H](CC(C)C)C(N)=O` [Compound 3e] returned a half-maximal inhibitory concentration (IC50) of 34 ± 6 µM and a Ki of 7.3 ± 1.2 µM.

In turn, `CC(=O)N[C@@H](C)C(=O)N[C@@H](CCCNC(=N)N)C(=O)N[C@@H](Cc1ccccc1)C(N)=O` [Compound 3g] yielded a Ki at WDR5 of 60 ± 8 µM.

At WDR5, `CC(=O)N[C@@H](C)C(=O)N[C@@H](CCCNC(=N)N)C(=O)N[C@@H](CO)C(N)=O` [Compound 3h] gave an IC50 of 1.8 ± 0.03 µM and a Ki of 0.4 ± 0.07 µM.

`CC(=O)N[C@@H](C)C(=O)N[C@@H](CCCNC(=N)N)C(=O)N[C@@H](CCC(=O)O)C(N)=O` [Compound 3j]: at WDR5, the IC50 is over 100 µM and the Ki was over 20 µM.

On to `CCC(CC)(NC(C)=O)C(=O)N[C@@H](CCCNC(=N)N)C(=O)N[C@H](C(N)=O)C(C)C` [Compound 4f], for which it took 0.02 ± 0.01 µM to reach half-maximal inhibition on WDR5 (IC50).

On to `CCC[C@H](NC(C)=O)C(=O)N[C@@H](CCCNC(=N)N)C(=O)N[C@H](C(N)=O)C(C)C` [Compound 4h], for which the Ki on WDR5 worked out at 0.04 ± 0.002 µM.

One may read the IC50 as the concentration that inhibits the measured activity by half. Low readings indicate greater potency, high ones weaker potency. For orientation: Ki means the dissociation constant of the complex between target and ligand, obtained from inhibition or displacement.
